The species named for this test is Homo sapiens. In words: Selectivity index, ratio of IC50 for recombinant human MAO-B to IC50 for recombinant human MAO-A.

Turning to `O=C1c2ccccc2C(=O)c2c1ccc(O)c2O` [ATHRAQUINONES A], the Ratio IC50 is above 1.99.

The values above are taken from ChEMBL document CHEMBL3997813, “Selective inhibition of monoamine oxidase A by purpurin, an anthraquinone” (Bioorg Med Chem Lett, 2017).
